The chains behind the UniProt entries cited, without tags or fusion partners. Residues count along the entry.
UniProt O96028, 2-1365 limits assumed: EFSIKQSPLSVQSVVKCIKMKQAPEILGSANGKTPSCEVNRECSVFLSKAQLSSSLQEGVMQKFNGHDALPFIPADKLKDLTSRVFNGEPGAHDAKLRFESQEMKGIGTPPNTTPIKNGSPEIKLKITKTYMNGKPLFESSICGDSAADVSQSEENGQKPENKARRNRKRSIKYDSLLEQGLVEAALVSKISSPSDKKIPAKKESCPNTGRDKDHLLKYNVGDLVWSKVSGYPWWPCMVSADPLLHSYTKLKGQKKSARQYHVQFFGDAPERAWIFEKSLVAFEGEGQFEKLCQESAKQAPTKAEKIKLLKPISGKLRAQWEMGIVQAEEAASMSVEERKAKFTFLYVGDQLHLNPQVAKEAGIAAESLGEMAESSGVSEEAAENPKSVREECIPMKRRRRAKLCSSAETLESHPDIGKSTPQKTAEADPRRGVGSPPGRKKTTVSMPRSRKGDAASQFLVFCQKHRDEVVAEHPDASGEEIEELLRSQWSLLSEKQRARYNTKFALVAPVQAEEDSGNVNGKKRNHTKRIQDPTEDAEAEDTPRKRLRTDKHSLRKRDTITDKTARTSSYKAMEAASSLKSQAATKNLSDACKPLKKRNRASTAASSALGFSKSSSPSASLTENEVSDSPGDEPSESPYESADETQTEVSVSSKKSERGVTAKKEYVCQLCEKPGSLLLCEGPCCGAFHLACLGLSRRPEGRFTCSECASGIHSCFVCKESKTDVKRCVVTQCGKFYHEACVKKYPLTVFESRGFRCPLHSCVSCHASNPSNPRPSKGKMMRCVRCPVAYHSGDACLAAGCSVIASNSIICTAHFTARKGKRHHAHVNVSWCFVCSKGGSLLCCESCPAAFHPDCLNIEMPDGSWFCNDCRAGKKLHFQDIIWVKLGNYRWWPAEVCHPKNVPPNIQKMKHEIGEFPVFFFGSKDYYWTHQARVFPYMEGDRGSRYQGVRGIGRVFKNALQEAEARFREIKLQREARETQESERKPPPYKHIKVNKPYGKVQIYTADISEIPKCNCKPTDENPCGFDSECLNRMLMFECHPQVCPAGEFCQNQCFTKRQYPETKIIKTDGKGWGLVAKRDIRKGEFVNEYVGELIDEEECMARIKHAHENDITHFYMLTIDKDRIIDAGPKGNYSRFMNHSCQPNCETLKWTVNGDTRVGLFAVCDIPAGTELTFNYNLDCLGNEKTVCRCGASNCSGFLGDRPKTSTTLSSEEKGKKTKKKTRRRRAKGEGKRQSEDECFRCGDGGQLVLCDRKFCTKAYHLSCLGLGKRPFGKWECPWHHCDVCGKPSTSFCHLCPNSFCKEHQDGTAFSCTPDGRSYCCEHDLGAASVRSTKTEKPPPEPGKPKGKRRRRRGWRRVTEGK

In patent US20250171454A1, “HETEROBIFUNCTIONAL PYRIDINYLMETHYL AMINOPURINE AND RELATED COMPOUNDS AND THEIR USE IN NSD2 DEGRADATION AND TREATING MEDICAL CONDITIONS” (K36 Therapeutics, Inc., priority 2023, published 2025):

Biological target: recombinant human NSD2 (amino acids 2-end) with N-terminal His tag (Homo sapiens (Human), UniProt O96028)
Test: NSD2 inhibitory activity, modified RBC HotSpot HMT Assay
Type: biochemical
Description: Exemplary compounds were tested for NSD2 inhibitory activity using a modified RBC HotSpot HMT Assay.
A reaction mixture was prepared by adding oligonucleosomes from chicken (0.05 mg/mL) to freshly prepared reaction buffer containing 50 mM Tris-HCl (pH 8.5), 50 mM NaCl, 5 mM MgCl2, 0.01% Brij35, 1 mM DTT, and 1% DMSO followed by the addition of recombinant human NSD2 (amino acids 2-end) with N-terminal His tag (2 nM; GenBank Accession No. NM_001042424; MW=155.5 kDa; expressed in Sf9 insect cells) and gentle mixing. The test compounds were diluted in DMSO (to 10 mM), and added to the reaction mixture in nanoliter amounts by using Acoustic Technology (Echo 550, LabCyte Inc. Sunnyvale, CA) and incubated for 20 minutes at room temperature. […] The reaction mixture was delivered to filter paper, and the methylated substrate was quantified by scintillation counting.
Data analysis was performed using Excel and GraphPad Prism software for IC50 curve fits. For additional information on the histone methyltransferase assay, see, for example, Horiuchi K Y, et al., “Assay Development for Histone Methyltransferases,” Assay Drug Dev Technol.

SMILES: Nc1ncnc2c1ncn2[C@@H]1O[C@H](CSCC[C@H](N)C(=O)O)[C@@H](O)[C@H]1O [SAH, S-(5′-adenosyl)-L-homocysteine, reference compound]
- IC50: > 1 µM
